These results are taken from ChEMBL document CHEMBL3085656, “A medicinal chemistry perspective for targeting histone H3 lysine-79 methyltransferase DOT1L” (J Med Chem, 2013).

The data set in a line: Intrinsic clearance in human liver microsomes assessed per mg of protein. Format: ADME. The settings on record: read-out: CLH.

The structures appear in SMILES notation.

`CC(C)N(CCCNC(=O)Nc1ccc(C(C)(C)C)cc1)C[C@H]1O[C@@H](n2cnc3c(N)ncnc32)[C@H](O)[C@@H]1O`: the microsomal CLint stood at 24 µL/min/mg.
